From PubChem BioAssay AID624297 (National Center for Advancing Translational Sciences (NCATS), 2012)
Values joined by “and” are separate entries in the source; they are usually repeats but may differ in a detail not shown here. Equal entries are not always repeated. The list shows a part of the results, in another mix than the full data. Inconclusive results are not listed. Entries that show only a call come without a potency. Where a structure was tested more than once in an assay, its records may differ in their call. Active and inactive are the calls of the source. Calls come from the whole dose curve; as a rule, active = well fitted activation curve with a large enough effect; inconclusive = small, poorly fitted or top-dose-only effect; inactive = no such curve, though single readings can be large or run the other way.

Experiment: A quantitative high throughput screen for small molecules that induce DNA re-replication in SW480 colon adenocarcinoma cells. Note: nearly all actives have a fitted effect of over 55% in size.
Settings: Hoechst DNA content imaging, 48 h; series mostly up to 46.1 µM
Potency is the fitted concentration of half-maximal effect.

SMILES	Potency
COc1ccc(C[C@H](C)NC[C@@H](O)c2ccc(O)c(NC=O)c2)cc1	inactive and active: 2.82 µM
COc1ccc(CC(C)NCC(O)c2ccc(O)c(NC=O)c2)cc1 (configuration not stated)	inactive
